Results reported in PubChem BioAssay AID651704 (Broad Institute, 2012).
Only a part is listed here, and it is no random draw. Activity calls are given as the source filed them.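 The calls were made as follows: active = every replicate reaching a set inhibition limit, whatever the replicate mean (cut at about 25% in these data); inconclusive = mean inhibition reaches that limit but some replicates miss it; inactive = the rest.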

The chains behind the UniProt entries cited, without tags or fusion partners.
UniProt P42568, whole entry: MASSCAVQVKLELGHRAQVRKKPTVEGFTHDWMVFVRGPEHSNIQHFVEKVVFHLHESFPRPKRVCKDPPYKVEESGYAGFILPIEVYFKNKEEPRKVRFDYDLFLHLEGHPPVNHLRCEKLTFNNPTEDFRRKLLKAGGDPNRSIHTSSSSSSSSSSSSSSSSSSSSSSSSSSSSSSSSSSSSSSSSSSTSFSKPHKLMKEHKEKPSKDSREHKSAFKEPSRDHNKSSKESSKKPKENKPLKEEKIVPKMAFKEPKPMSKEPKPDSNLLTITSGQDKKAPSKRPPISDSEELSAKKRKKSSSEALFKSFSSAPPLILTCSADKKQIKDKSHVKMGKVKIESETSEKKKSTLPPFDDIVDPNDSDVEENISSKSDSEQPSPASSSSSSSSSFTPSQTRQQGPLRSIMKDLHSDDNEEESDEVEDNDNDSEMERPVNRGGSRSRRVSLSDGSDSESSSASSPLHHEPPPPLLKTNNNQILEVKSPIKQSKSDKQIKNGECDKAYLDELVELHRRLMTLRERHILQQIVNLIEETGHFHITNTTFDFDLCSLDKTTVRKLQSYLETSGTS

target: Protein AF-9 (Homo sapiens) (UniProt P42568); assay: MLL-AF4/AF9 protein interaction blockers – biochemical, AlphaScreen, biotin-AF4 peptide, FLAG-AF9, single point, primary screen (AID 651704); conditions: biotin-AF4 peptide binding to FLAG-AF9, at 10 µM, hits give high values;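 also: 0% = plate neutral control median and 100% = total signal loss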

| SMILES | inhibition |
| --- | --- |
| O=P1(N(CCCl)CCCl)OCCCN1CCCl (stereo unspecified) | inactive: 3.28% |
| O=P1(N(CCCl)CCCl)Nc2ccccc2N1 | inactive: 1.15% |
| COc1ccccc1-c1ccccn1.O=[N+]([O-])c1cc([N+](=O)[O-])c(O)c([N+](=O)[O-])c1 | inactive: -2.23% |
| COc1ccc(N/C(=N/P(=O)(N2CCOCC2)N2CCOCC2)N2CCOCC2)cc1 | inactive: 0.894% |
| O=[N+]([O-])c1cc(Oc2ccc([N+](=O)[O-])cc2C(F)(F)F)cc([N+](=O)[O-])c1 | inactive: 0.229% |
| O=[N+]([O-])c1ccc(-c2cc([N+](=O)[O-])c(O)c([N+](=O)[O-])c2)cc1 | inactive: 0.264% |
| COc1cc(C(=O)NCC2(N3CCOCC3)CCCCC2)ccc1OCC(C)C | inactive: 3.22% |
| O=[As](O)(c1ccc(O)cc1)c1ccccc1O | inactive: -6.94% |
| C[As](=O)(O)c1cccc(C(=O)O)c1 | inactive: -10.6% |
| O=[N+]([O-])c1ccc2c(c1)C=Nc1ccccc1O2 | inactive: 5.3% |
| Cc1ccc2nc3c(c(C)c2c1)CC(C(Cl)Cl)S3 (stereo unspecified) | inactive: -2.8% |
| Cc1cccc(C)c1OP(C)(N)=O (stereo unspecified) | inactive: -3.06% |
| [N-]=[N+]=NC1CCCCC1NC(=O)c1cc([N+](=O)[O-])cc([N+](=O)[O-])c1 (stereo unspecified) | inactive: -0.338% |
| Cc1ccc(OP(=O)(Nc2ccc([N+](=O)[O-])cn2)Oc2ccc(C)cc2)cc1 | inactive: -0.171% |
| CC(C)(C)c1ccc(OP(C)(=O)Nc2ccc(SC(F)(F)F)cc2)cc1 (stereo unspecified) | inactive: -28.4% |
| COC(=O)C1(C)COP(=O)(N2CCCCCC2)OC1 (stereo unspecified) | inactive: -2.41% |
| Cc1cc(C)cc(OP(C)(N)=O)c1 (stereo unspecified) | inactive: -2.11% |
| COc1ccccc1OP(C)(=O)Nc1cc(Cl)ccc1C (stereo unspecified) | inactive: -2.79% |
| CC(C)NC(=O)NP(=O)(Oc1ccccc1)Oc1ccccc1 | inactive: 1.1% |
| O=C(OC1CN2CCC1CC2)c1cccc2[nH]cnc12 (stereo unspecified) | inactive: -6% |
| O=P(Nc1nccs1)(Oc1ccccc1)Oc1ccccc1 | inactive: -4.99% |
| CCOP1(=S)c2c(C)nn(CCC#N)c2N=C(c2ccccc2F)N1C (stereo unspecified) | inactive: 5.5% |
| O=C(O)c1cccc(Nc2c([N+](=O)[O-])cc([N+](=O)[O-])cc2[N+](=O)[O-])c1 | inactive: 6.71% |
| Nc1ccccc1[As](=O)(O)c1ccccc1 | inactive: 12.3% |
| O=C(O)COc1ccc([As](=O)(O)O)cc1[N+](=O)[O-] | inactive: -2.67% |
| NC(=O)Nc1ccc([As](=O)(O)O)cc1 | inactive: 0.219% |
